The values that follow come from patent publication US9453023B2, “Substituted phenyl cycloalkyl pyrrolidine (piperidine) spirolactams and amides, preparation and therapeutic use thereof” (SANOFI, priority 2010, dated 2016).

By UniProt entry, the sequences of proteins in these tests, tags left out. Residues count along the entry.
UniProt Q865E1, 1-445: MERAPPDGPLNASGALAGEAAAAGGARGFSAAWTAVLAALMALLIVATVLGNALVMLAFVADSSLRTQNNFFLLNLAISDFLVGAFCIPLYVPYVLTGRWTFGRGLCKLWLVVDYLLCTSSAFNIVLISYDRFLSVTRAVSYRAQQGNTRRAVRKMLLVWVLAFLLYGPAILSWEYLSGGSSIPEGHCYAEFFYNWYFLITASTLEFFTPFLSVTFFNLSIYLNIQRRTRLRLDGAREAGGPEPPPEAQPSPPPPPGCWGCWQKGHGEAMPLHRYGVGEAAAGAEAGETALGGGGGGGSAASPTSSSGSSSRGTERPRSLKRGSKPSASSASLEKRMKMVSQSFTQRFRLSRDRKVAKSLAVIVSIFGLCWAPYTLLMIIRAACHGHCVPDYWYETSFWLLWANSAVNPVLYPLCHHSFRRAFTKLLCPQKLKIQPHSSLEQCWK

The target in the assay is rhesus (Macacca Mulatta) H3 receptor (Macaca mulatta, UniProt Q865E1). The assay is described as follows: Rhesus H3 radioligand binding assay ([3H]-Methylhistamine, WGA SPA). Set-up: species or system rhesus monkey (Macacca Mulatta). Particulars: displacement of [3H]-Methylhistamine (2 nM) from rhesus H3 receptor membranes; Cheng-Prusoff. The protocol:
(Genbank #AY231164). Stably transfected cultures were amplified in tissue culture flasks by standard tissue culture methods and induced to express rhesus H3 by exposure to 500 ng/ml tetracycline (Cellgro) for 24 hours. After induction, cells were dissociated from flasks utilizing Cell Stripper (Cellgro). Cells were centrifuged (1K×g, 5 min) and pellet frozen in an ethanol-dry ice bath to disrupt cell membranes. Frozen cell pellet was re-suspended in 5 mM HEPES (pH 7.4, Invitrogen) at 10 ml/1000 cm2 of harvested cells. The cell suspension was drawn through an 18 gauge needle (2-3×) followed by a 23 gauge needle (2-3×) to further disrupt cell membranes. The cell suspension was centrifuged (40K×g, 30 min). Cell membrane pellet was re-suspended in 5 mM HEPES (pH 7.4, Invitrogen) at a final protein concentration of 10 mg/ml. Rhesus H3 membranes were stored under liquid nitrogen prior to use in [3H]-Methylhistamine and GTPγS radioligand binding assays.
Rhesus H3 radioligand binding assay was performed using rhesus H3 receptor membranes (prepared as described above), [3H]-Methylhistamine (Perkin Elmer) and WGA SPA beads (wheat germ agglutinin scintillation proximity assay) beads (Amersham). The assay was performed in 96-well Opti-Plates (Packard). Each reaction contained 50 μl rhesus H3 membranes (20-30 μg total protein), 50 μl WGA SPA beads (0.1 μg) and 50 μl of 83 Ci/mmol [^3H]-Methylhistamine (final concentration 2 nM) and 50 μl of tested compound. The compounds of this invention and/or vehicle were diluted with binding buffer from 10 mM DMSO stocks. Assay plates were sealed with TopSeal (Perkin Elmer) and mixed on shaker (25° C., 1 hour). Assay plates were read on TopCount scintillation counter (Packard). Results were analyzed by Hill transformation and Ki values were determined by Cheng-Prusoff equation.

For the molecule `C[C@@H]1CCCN1[C@H]1CC[C@H](c2ccc(N3CCC4(CCN(C(=O)OC(C)(C)C)CC4)C3=O)c(F)c2)CC1` [Example 14, 2-{2-Fluoro-4-[4-((R)-2-methyl-pyrrolidin-1-yl)-cyclohexyl]-phenyl}-1-oxo-2,8-diaza-spiro[4.5]decane-8-carboxylic acid tert-butyl ester], the affinity, expressed as Ki, was 6.61 nM.

With `C[C@H]1CCCN1C1CC[C@H](c2ccc(NC(=O)c3ccccc3)cc2)C1` (stereo partly drawn) [Example 29, N-{4-[(S)-3-((S)-2-Methyl-pyrrolidin-1-yl)-cyclopentyl]-phenyl}-benzamide], the affinity corresponds to a Ki of 75.3 nM. `COC(=O)C1CCC2(CC1)CCN(c1ccc([C@H]3CCC(N4CCCC4C)C3)cc1)C2=O` (stereo partly drawn) [Example 5, 2-{4-[3-(2-Methyl-pyrrolidin-1-yl)-cyclopentyl]-phenyl}-1-oxo-2-aza-spiro[4.5]decane-8-carboxylic acid methyl ester] showed a Ki of 44.1 nM.

Broadly, the Ki is the dissociation constant of the complex between target and ligand, obtained from inhibition or displacement.
